Here are results for three compounds from ChEMBL document CHEMBL1158463 (J Med Chem, 2009).

The target in test [1] is Delta-type opioid receptor (Homo sapiens, UniProt P41143). Description: Displacement of [3H]naltrindole from human cloned delta opioid receptor expressed in CHO cells. For orientation: Displacement assays read how much labelled ligand stays bound in the presence of the test substance.
The target of test [2] is Kappa-type opioid receptor (Homo sapiens, UniProt P41145). Description: Displacement of [3H]U69593 from human cloned kappa opioid receptor expressed in CHO cells.
The target of a further test is Mu-type opioid receptor (Homo sapiens, UniProt P35372). The test is described as follows: Displacement of [3H]diprenorphine from human cloned mu opioid receptor expressed in CHO cells.
Test [3] deals with T1, Nociceptin receptor (Homo sapiens, UniProt P41146). The test is described as follows: Antagonist activity at human ORL1 receptor expressed in CHO cells by [35S]GTPgammaS binding assay.
The target of test [4] is T1, Nociceptin receptor. Description: Displacement of [125I]Tyr14-nociceptin from human cloned ORL1 receptor expressed in CHO cells.

As usually defined, the IC50 is the concentration needed to halve the response being measured. In the case of `O=c1n(C[C@H](O)CO)c2ccccc2n1C1CCN(C[C@H]2[C@H]3CC[C@H](C3)C23CC3)CC1`, the figures for the half-inhibitory concentration (IC50) (in test [1]; in test [2]; at Mu-type opioid receptor) were above 10 µM, 6.8 µM and 2.7 µM, respectively.
Consider `O=c1n(C[C@@H](O)CO)c2ccccc2n1C1CCN(C[C@H]2[C@H]3CC[C@H](C3)C23CC3)CC1`, for which the figures for the half-inhibitory concentration (IC50) (in test [1]; in test [2]; on Mu-type opioid receptor) were above 10 µM, 10 µM and 4.5 µM, respectively.
Take `O=c1n(C(CO)CO)c2ccccc2n1C1CCN(C[C@H]2[C@H]3CC[C@H](C3)C23CC3)CC1`: the half-inhibitory concentration (IC50) is above 10 µM in test [1]; 11 µM in test [2]; 0.015 µM on Nociceptin receptor [3]; 0.0023 µM at Nociceptin receptor [4]; 6.2 µM on Mu-type opioid receptor.
